Usually IC50 stands for the concentration that gives 50% inhibition. A low value points to higher potency.

Chains of the proteins cited; added tags and fusions are not shown. Lines headed by an entry give the natural chain unless they say otherwise; changes in a name come on top.
UniProt Q16853: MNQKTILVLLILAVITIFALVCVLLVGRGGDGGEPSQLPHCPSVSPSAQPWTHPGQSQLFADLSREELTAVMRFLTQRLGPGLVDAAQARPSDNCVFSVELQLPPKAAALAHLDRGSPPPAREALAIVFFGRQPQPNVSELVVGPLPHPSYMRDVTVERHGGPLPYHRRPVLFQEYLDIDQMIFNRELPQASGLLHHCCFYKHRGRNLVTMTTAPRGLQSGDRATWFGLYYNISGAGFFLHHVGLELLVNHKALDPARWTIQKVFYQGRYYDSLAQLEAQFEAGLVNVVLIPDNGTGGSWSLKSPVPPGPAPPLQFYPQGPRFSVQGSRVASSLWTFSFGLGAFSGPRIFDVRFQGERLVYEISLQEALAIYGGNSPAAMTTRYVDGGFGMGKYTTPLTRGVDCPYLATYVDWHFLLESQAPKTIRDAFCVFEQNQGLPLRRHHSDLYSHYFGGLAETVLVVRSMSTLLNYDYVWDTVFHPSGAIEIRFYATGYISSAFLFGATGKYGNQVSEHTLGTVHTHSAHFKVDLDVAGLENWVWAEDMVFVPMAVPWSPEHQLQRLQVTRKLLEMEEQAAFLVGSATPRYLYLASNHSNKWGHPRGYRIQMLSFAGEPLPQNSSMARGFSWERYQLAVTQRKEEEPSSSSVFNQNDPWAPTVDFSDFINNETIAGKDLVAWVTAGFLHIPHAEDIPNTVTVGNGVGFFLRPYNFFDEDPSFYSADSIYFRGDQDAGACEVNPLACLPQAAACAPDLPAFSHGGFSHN
UniProt O08590: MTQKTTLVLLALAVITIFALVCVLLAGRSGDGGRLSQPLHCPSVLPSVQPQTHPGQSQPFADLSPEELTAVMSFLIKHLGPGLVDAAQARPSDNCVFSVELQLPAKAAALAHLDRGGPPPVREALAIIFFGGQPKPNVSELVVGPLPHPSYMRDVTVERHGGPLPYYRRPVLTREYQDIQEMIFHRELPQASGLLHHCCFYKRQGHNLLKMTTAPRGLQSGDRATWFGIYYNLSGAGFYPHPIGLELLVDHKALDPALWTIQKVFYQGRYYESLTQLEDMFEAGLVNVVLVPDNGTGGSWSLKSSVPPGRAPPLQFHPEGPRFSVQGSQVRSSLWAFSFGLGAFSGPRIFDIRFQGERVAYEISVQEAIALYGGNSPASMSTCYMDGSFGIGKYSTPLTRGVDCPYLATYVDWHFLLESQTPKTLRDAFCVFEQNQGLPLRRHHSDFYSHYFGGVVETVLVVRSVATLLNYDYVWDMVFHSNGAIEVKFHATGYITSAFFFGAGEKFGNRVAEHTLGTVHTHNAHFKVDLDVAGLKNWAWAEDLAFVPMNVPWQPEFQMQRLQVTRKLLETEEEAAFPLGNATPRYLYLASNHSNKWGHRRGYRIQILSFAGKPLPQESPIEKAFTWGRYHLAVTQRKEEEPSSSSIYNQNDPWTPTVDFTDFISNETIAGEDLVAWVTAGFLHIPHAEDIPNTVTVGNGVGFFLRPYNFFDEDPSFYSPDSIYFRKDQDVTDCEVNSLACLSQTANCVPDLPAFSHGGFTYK

Results on two molecules are retold here after patent US9556160B2, “Guanidine compound” (Astellas Pharma Inc., priority 2011, dated 2017).

Experiment [1] has as its target human VAP-1 enzyme (SSAO) (Homo sapiens (Human), UniProt Q16853). The experiment in a line: Inhibitory effect on human VAP-1 enzyme (SSAO) activity, radiochemistry-enzymatic assay with 14C-benzylamine. In kind it is biochemical. The note with it: CHO-expressed human VAP-1, 14C-benzylamine 1×10^−5 mol/L. As to the method:
(§1) After homogenizing CHO (Chinese Hamster Ovary) cells stably expressing a human VAP-1 enzyme (SSAO) in a 50 mM phosphate buffer containing 1% NP-40, an enzyme suspension was obtained by taking the supernatant obtained by centrifugation. The enzyme suspension was preincubated with the compound of the present invention in a 96-well microplate at room temperature for 30 minutes. Subsequently, the enzyme suspension was incubated with ^14C-benzylamine (a final concentration of 1×10^−5 mol/L) to a final volume of […] at 37° C. for 1 hour. The enzymatic reaction was stopped by the addition of 2 mol/L (50 pt) of citric acid.

Experiment [2] concerns VAP-1 enzyme (SSAO) activity in rat plasma. The experiment in a line: Inhibitory effect on rat VAP-1 enzyme (SSAO) activity in rat plasma after oral administration. Conditions: rat plasma VAP-1 activity, oral 0.3 mg/kg; for Inhibition Ratio (%) 1 h: 1 h after administration; for Inhibition Ratio (%) 3 h: 3 h after administration; for Inhibition Ratio (%) 6 h: 6 h after administration; for Inhibition Ratio (%) 24 h: 24 h after administration. Type of experiment: in vivo, Wistar male rats. As to the method: Eight-week to twelve-week Wistar male rats were fasted for 20 hours, and orally administered with a test drug ([…]). Heparin blood collection from the tail vein was performed immediately before the administration, and at 1 h, 3 h, 6 h, 12 h, or 24 h after the administration. The resulting blood was subjected to centrifugation at 14000 rpm for 5 minutes to separate plasma, and the VAP-1 enzyme activity in the resulting plasma was measured by a radio-enzyme assay method.
For the radio-enzyme assay method, ^14C-benzylamine which is a synthetic substrate (10 μM) was reacted with the resulting plasma at 37° C., and the resulting metabolite was extracted with a mixture of toluene/ethyl acetate. The radioactivity was measured and taken as a VAP-1 enzyme activity in the plasma. The effect of the test drug was calculated from the inhibitory ratio (%) of the VAP-1 activity after the administration of the test drug relative to the VAP-1 activity in the plasma immediately before the administration.

The target in experiment [3] is rat VAP-1 enzyme (SSAO) (Rattus norvegicus (Rat), UniProt O08590). The experiment in a line: Inhibitory effect on rat VAP-1 enzyme (SSAO) activity, radiochemistry-enzymatic assay with 14C-benzylamine. In kind it is biochemical. The note with it: CHO-expressed rat VAP-1, 14C-benzylamine 1×10^−5 mol/L. As to the method:
as §1, with “rat” for “human”, “μL)” for “pt)”, “acid. The oxidation products were extracted directly in a 200 μL toluene scintillator, and the radioactivity was measured with a scintillation spectrometer.” for “acid.”

In the case of `N=C(N)NC(=O)OCc1cccc(N2CCN(c3cccnc3)CC2)c1F` [Example 293], the half-inhibitory concentration (IC50) in experiment [1] was 19 nM. For the same molecule, in experiment [2], the “Inhibition Ratio (%) 1 h” value is listed as 59%, the “Inhibition Ratio (%) 3 h” value turned out to be 83%, the “Inhibition Ratio (%) 6 h” value came to 72% and the “Inhibition Ratio (%) 24 h” value is listed as 60%.

In experiment [1], `Cc1ccc(OC2CN(c3cccc(COC(=O)NC(=N)N)c3F)C2)cn1` [Example 552] came in with an IC50 of 25 nM. Moreover, in experiment [2], the “Inhibition Ratio (%) 1 h” value came out at 93%, the “Inhibition Ratio (%) 3 h” value was determined as 81%, the “Inhibition Ratio (%) 6 h” value was 75% and the “Inhibition Ratio (%) 24 h” value is listed as 24%. In addition, in experiment [3], the 50% inhibitory concentration (IC50) was 5.5 nM.
